In one experiment the target is sLFA-1/ICAM-1 (Homo sapiens, UniProt P05107+P20701). The experiment in a line: sLFA-1/ICAM-1 ELISA (LFA1 Adhesion Assay). As to conditions: read-out: LFA1 Adhesion Assay (IC50 nM); Table 5. Background: ELISA stands for enzyme-linked immunosorbent assay.
The test system of another experiment is Jurkat Cells/VCAM-1. Nature of the experiment: Jurkat Cells/VCAM-1 Adhesion Assay. It counts as cell-based. The settings on record: for IC50: read-out: Jurkat Cells/VCAM-1 Adhesion Assay (IC50 nM), Table 5.

Amino acid sequences for entries named in this document (tags omitted). Residues count along the entry.
UniProt P05107, 23-700 limits assumed: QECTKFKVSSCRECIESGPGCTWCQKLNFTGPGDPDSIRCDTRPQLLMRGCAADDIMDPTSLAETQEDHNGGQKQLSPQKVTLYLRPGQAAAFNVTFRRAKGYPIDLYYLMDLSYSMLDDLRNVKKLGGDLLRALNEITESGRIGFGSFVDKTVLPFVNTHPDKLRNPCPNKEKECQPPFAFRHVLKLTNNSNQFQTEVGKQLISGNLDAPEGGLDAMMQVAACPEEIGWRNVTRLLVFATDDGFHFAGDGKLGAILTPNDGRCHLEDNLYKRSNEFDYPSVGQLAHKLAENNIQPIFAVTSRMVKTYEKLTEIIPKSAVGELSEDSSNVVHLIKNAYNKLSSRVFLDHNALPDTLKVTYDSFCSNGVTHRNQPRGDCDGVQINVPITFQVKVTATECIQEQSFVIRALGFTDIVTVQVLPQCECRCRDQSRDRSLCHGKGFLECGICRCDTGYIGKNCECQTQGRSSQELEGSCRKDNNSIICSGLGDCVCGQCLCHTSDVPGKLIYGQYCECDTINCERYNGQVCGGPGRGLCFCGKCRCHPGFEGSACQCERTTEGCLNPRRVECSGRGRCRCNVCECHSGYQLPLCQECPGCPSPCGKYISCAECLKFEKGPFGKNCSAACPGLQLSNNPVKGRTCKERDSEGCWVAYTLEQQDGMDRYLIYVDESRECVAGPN
UniProt P20701, 26-1090 limits assumed: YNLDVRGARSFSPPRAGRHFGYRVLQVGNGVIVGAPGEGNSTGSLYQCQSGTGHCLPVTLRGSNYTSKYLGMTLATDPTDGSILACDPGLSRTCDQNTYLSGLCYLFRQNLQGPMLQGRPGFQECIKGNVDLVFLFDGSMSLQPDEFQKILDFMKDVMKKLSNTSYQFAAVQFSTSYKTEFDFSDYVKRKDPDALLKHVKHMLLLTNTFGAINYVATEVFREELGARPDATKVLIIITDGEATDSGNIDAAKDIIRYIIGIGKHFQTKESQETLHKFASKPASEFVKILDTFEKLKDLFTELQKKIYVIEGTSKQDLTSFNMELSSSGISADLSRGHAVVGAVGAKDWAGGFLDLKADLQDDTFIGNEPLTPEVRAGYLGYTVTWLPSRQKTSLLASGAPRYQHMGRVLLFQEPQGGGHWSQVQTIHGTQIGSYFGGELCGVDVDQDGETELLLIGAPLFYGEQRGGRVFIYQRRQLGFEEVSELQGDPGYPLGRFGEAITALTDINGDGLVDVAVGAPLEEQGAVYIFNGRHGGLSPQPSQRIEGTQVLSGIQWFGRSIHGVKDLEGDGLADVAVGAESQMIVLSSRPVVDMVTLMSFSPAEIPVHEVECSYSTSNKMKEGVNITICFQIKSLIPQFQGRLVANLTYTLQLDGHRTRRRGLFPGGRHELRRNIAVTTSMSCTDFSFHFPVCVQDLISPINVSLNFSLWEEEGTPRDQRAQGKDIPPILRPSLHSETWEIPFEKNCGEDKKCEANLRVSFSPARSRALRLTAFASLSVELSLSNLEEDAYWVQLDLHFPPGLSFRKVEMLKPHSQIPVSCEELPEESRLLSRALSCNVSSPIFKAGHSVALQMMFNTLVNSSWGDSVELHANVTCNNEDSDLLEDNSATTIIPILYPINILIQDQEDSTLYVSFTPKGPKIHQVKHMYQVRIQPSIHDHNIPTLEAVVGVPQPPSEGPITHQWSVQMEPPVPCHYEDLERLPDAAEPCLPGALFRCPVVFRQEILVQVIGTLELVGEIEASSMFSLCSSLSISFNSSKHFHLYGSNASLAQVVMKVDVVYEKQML

Here are results for 4 compounds from US20130197059A1, “INTEGRIN ANTAGONIST CONJUGATES FOR TARGETED DELIVERY TO CELLS EXPRESSING LFA-1” (Hoffmann-La Roche Inc., priority 2012, published 2013).

pIC50: −log10 of the molar value. Read-outs that look alike come from different tables or passages of the source.

As for `Cc1nc(NCCCc2cccc(O)c2)nc(C)c1C(=O)N[C@@H](CNC(=O)CCOCCOCCOCCOCCOCCOCCOCCOCCNC(=O)CCN1C(=O)CC(SCCC(=O)Nc2ccc(-c3c4ccc(=O)cc-4oc4cc(O)ccc34)c(C(=O)O)c2)C1=O)C(=O)O` (stereo partly shown), the IC50 at sLFA-1/ICAM-1 and with Jurkat Cells/VCAM-1 was 160 nM in each case.

In the case of `Cc1nc(NCCCc2cccc(O)c2)nc(C)c1C(=O)N[C@@H](CNC(=O)CCOCCOCCOCCOCCOCCOCCOCCOCCOCCOCCOCCOCCNC(=O)CCN1C(=O)C=CC1=O)C(=O)O`, the IC50 on sLFA-1/ICAM-1 turned out to be 502 nM.

Turning to `Cc1nc(NCCCc2cccc(O)c2)nc(C)c1C(=O)N[C@@H](CNC(=O)CCOCCOCCOCCOCCNC(=O)CCN1C(=O)C=CC1=O)C(=O)O`, on sLFA-1/ICAM-1, the IC50 came to 134 nM.

`O=C(CCN1C(=O)CC(SCCC(=O)Nc2ccc(-c3c4ccc(=O)cc-4oc4cc(O)ccc34)c(C(=O)O)c2)C1=O)NCCOCCOCCOCCOCCOCCOCCOCCOCCC(=O)NCc1ccccc1` (stereo not shown): the IC50 was greater than 10000 nM at sLFA-1/ICAM-1 and greater than 200 nM with Jurkat Cells/VCAM-1. The pIC50 in the experiment with Jurkat Cells/VCAM-1 (read-out: Jurkat Cells/VCAM-1 Adhesion Assay, Table 4) is less than 6.70.
